According to US7169786B2, “Isoxazoline derivatives as anti-depressants” (priority 2001, dated 2007):
Where two headings read alike, the source gives them in different places.

Protein sequences, listed by entry. Tags and fused reporters are not part of them.
UniProt P18825, whole entry: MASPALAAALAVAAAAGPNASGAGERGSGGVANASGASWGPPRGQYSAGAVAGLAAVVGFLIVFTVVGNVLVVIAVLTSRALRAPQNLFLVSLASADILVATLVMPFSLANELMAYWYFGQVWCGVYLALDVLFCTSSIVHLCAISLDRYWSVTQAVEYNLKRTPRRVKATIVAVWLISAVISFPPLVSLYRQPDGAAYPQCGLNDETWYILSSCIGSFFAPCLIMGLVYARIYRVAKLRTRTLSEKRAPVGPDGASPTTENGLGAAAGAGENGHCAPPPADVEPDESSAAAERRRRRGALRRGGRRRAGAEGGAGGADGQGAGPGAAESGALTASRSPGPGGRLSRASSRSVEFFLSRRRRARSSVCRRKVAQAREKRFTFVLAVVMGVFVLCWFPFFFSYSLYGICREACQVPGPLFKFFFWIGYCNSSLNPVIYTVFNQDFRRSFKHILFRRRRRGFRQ
UniProt P08913, whole entry: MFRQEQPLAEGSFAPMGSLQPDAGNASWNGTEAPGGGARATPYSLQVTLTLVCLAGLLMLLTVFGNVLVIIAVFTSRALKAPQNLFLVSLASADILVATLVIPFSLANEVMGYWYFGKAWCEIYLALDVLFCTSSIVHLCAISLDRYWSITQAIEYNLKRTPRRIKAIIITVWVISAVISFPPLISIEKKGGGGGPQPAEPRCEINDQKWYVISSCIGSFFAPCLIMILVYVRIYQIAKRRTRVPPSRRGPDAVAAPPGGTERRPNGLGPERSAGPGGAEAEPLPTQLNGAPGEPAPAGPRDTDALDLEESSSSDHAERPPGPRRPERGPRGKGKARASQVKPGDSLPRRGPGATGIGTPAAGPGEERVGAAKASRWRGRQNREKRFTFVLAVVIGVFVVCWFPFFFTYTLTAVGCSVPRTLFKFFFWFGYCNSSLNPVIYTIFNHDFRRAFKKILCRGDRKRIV
UniProt P18089, whole entry: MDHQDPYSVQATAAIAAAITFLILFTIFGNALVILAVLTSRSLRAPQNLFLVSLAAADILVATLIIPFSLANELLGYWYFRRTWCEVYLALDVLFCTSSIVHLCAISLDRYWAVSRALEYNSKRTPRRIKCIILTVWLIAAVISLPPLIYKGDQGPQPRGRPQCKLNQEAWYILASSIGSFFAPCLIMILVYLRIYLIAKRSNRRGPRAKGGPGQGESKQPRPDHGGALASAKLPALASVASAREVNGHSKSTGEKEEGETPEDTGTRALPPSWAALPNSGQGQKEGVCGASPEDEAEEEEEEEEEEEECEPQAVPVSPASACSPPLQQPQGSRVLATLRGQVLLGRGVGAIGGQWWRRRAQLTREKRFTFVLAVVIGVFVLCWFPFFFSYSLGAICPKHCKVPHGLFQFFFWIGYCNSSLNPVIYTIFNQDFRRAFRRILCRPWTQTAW
UniProt P31645, whole entry: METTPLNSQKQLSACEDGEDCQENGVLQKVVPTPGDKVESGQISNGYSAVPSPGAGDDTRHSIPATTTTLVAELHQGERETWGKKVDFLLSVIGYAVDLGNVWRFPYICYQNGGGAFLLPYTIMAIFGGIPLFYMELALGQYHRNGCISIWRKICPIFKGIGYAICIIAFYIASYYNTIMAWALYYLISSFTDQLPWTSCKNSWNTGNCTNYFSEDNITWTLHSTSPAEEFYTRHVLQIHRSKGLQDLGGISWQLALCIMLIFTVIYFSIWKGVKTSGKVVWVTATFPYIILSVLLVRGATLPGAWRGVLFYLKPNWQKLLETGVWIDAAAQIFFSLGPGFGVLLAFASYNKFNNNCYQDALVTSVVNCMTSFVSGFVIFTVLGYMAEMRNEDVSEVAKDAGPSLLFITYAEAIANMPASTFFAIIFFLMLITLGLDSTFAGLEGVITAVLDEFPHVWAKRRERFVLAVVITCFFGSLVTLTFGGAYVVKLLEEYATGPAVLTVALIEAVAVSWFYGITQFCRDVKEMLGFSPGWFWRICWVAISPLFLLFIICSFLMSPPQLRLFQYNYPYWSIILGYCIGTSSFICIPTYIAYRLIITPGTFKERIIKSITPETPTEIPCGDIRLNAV

Tests used:
hα2C receptor = hα2C receptor (Homo sapiens, UniProt P18825); assay: Radioligand binding experiment for hα2C receptor ([3H]-raulwolscine)
hα2A receptor = hα2A receptor (Homo sapiens, UniProt P08913); assay: Radioligand binding experiment for hα2A receptor ([3H]-raulwolscine)
hα2B receptor = hα2B receptor (Homo sapiens, UniProt P18089); assay: Radioligand binding experiment for hα2B receptor ([3H]-raulwolscine)
h5-HT transporter = h5-HT transporter (Homo sapiens, UniProt P31645); assay: Radioligand binding experiment for 5-HT transporter ([3H]paroxetine, human platelet membranes)
[1] = membranes of CHO cells expressing human α2C receptor, [3H]raulwolscine 1 nM

Structure (SMILES)	hα2C pIC50 (hα2C receptor; [1])	hα2A pIC50 (hα2A receptor)	hα2B pIC50 (hα2B receptor; membranes of CHO cells expressing human α2B receptor, [3H]raulwolscine 1 nM)	5HTT pIC50 (h5-HT transporter; human platelet membranes, [3H]paroxetine 0.5 nM)	hα2A pIC50 (hα2A receptor; membranes of CHO cells expressing human α2A receptor, [3H]raulwolscine 1 nM)	hα2C pIC50 (hα2C receptor; tested form: HCl (1:2))	hα2B pIC50 (hα2B receptor; tested form: HCl (1:2))	5HTT pIC50 (h5-HT transporter; tested form: HCl (1:2))	hα2A pIC50 (hα2A receptor; tested form: HCl (1:2))
COc1cc2c(cc1OC)C1=NO[C@H](CN3CCN(C/C(C)=C/c4ccc(F)cc4)CC3)[C@H]1CO2 (relative stereo)	8.54	7.86	–	–	–	–	–	–	–
COc1cc2c(cc1OC)C1=NO[C@H](CN3CCN(C/C(C)=C/c4ccsc4)CC3)[C@H]1CN2 (relative stereo)	7.99	–	8.35	7.63	7.78	–	–	–	–
COc1ccc2c(c1)CC[C@H]1C2=NO[C@@H]1CN1CCN(Cc2ccc3ccccc3c2)CC1 (relative stereo)	–	–	–	–	–	7.15	7.74	8.36	8.11
